Experiments:
[1] = Particle size by DLS before and after binding to albumin; format: physicochemical; settings: BSA 200 μM and ECMal-PROTAC 140 μM in PBS, 1:1, 30 minutes
Procedure: A BSA solution (200 μM) diluted with PBS was co-incubated by mixing it with an ECMal-PROTAC aqueous solution (140 μM) of example 1 at a 1:1 volume ratio. The culture was collected after 30 minutes to obtain Alb-ECMal-PROTAC. The particle size of Alb-ECMal-PROTAC and BSA was measured through DLS.

[2] = system: esterase; test: Degradation of Alb-ECMal-PROTAC under esterase conditions, release of ARV-771 (RP-HPLC); format: biochemical, porcine; settings: role: substrate, esterase 15 units, pH 8.0 (conjugation step)
Source text: In this example, ARV-771 (99.02%) was obtained from Chemscene (Monmouth Junction, NJ, USA). DMF (N,N-dimethylformamide; 99.8%), EDC-HCl (N-(3-dimethylaminopropyl)-N′-ethylcarbodiimide hydrochloride), DMAP (4-dimethylaminopyridine; 99%), esterase obtained from porcine liver, and TEA (triethylamine; 99.5%) were purchased and used from Sigma-Aldrich (St. Louis, MO, USA). 5-Azidovaleric acid (98%), 4-maleimidobutyric acid (98%), and 2-mercaptoethanol (98%) were commercially obtained and used from Tokyo Chemical Industry (TCI; Toshima, Tokyo, Japan). BCN-PEG2-Mal (Bicyclononyne-polyethylene glycol-maleimide; 95%) was purchased from Axispharm (San Diego, CA, USA), and acetonitrile (ACN) was purchased from Honeywell (Charlotte, NC, USA). DMSO (Dimethyl sulfoxide; 99%), BSA (bovine serum albumin; 98%), and TWEEN 20 were purchased from Biosesang (Ansan, Gyeonggi, Republic of Korea). Cy5.5-NHS(Cyanine 5.5-N-hydroxysuccinimide ester) and Cy5.5-COOH (cyanine 5.5-carboxylic acid) were purchased from Lumiprobe (Hunt Valley, MD, USA). […]
A BSA solution (200 μM) diluted with PBS was co-incubated by mixing it with an ECMal-PROTAC aqueous solution (140 μM) of example 1 at a 1:1 volume ratio. […] The mixture was collected at reaction times of 0 hours, 3 hours, 6 hours, and 9 hours, and analyzed by RP-HPLC. […]

## Alb-ECMal-PROTAC
[1]
  average particle size: 6.99±1.38 nm
[2]
  ARV-771 released within 48 hours: 63.2%

— patent US20260325542A1, “CANCER TARGETING COMPLEX, AND COMPOSITION COMPRISING SAME FOR PREVENTING OR TREATING CANCER” (EWHA UNIVERSITY - INDUSTRY COLLABORATION FOUNDATION, priority 2023, published 2026)
